target: platelet P2Y1 receptor (Homo sapiens, UniProt P47900); assay: P2Y1 receptor binding assay ([β-33P]-2-thiomethyl ADP); conditions: read-out: P2Y1 IC50; binding of 0.3 nM [β-33P]-2-thiomethyl ADP, hP2Y1 expressing 132N1 cell membrane, 25° C., 60 minutes

Amino acid sequences for entries named in this document (tags omitted).
UniProt P47900, whole entry: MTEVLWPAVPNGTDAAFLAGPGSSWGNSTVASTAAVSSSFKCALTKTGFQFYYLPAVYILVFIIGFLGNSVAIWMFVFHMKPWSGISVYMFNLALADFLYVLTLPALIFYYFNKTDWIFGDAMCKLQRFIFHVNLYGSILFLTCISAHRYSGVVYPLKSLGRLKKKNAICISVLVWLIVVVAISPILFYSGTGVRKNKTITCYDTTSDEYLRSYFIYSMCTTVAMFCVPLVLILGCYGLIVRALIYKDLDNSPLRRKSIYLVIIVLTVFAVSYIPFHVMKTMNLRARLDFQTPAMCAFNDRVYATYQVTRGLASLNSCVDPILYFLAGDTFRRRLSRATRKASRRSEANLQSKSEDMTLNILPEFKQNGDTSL

| SMILES | IC50 [nM] |
| --- | --- |
| Cc1cc(Oc2ccccc2NC(=O)Nc2c(C)cc(Br)cc2C)n(-c2ccccc2)n1 | > 10000 |
| COc1ccc(NC(=O)Nc2ccccc2Oc2cc(C)nn2-c2ccccc2)c(OC)c1 | > 10000 |
| COc1ccc(OC)c(NC(=O)Nc2ccccc2Oc2cc(C)nn2-c2ccccc2)c1 | > 10000 |
| CC(=O)c1cccc(NC(=O)Nc2ccccc2Oc2cc(C)nn2-c2ccccc2)c1 | > 10000 |
| Cc1cc(Oc2ccccc2NC(=O)Nc2ccc(F)cc2)n(-c2ccccc2)n1 | 2740 |
| Cc1cc(Oc2ccccc2NC(=O)Nc2cc(F)cc(F)c2)n(-c2ccccc2)n1 | 1320 |
| CCc1ccccc1-n1nc(C)cc1Oc1ncccc1NC(=O)Nc1ccc(OC(F)(F)F)cc1 | 39 |
| Cc1cc(Oc2ccccc2NC(=O)Nc2ccc(F)cc2F)n(-c2ccccc2)n1 | 1190 |
| Cc1cc(Oc2ccccc2NC(=O)Nc2ccccc2Cl)n(-c2ccccc2)n1 | > 10000 |
